Measured values taken from ChEMBL document CHEMBL5729292, “Bromodomain inhibitor compound and use thereof” (2022).

Biological target: Bromodomain-containing protein 4 (Homo sapiens, UniProt O60885)
Assay: Inhibitory Activity Assay of BRD4 Small Molecule Compounds: AlphaScreen kit (Perkin Elmer) was used to detect effect of the compounds on binding of BRD4 bromodomain to acetylated histone H4 polypeptide. […] Each of fusion proteins containing (His)6tag can be recognized and bound by Ni2+. […] The donor microbeads were coated with streptavidin and can bind to biotinylated acetylated H4 polypeptide. The acceptor microbeads were coated with Ni2+ ions and can bind to the BD1 protein with (His)6tag. When the BD1 protein recognized the acetylated H4 polypeptide, the donor microbeads and the acceptor microbeads can be brought closer to a certain distance. Within this range, the donor microbeads can produce singlet oxygen after being irradiated with a 680 nm excitation light, and transfer the singlet oxygen to the acceptor microbeads. After a series of cascade chemical reactions, the acceptor microbeads will generate an emission wave of 520-620 nm, which in turn can be detected a signal. In this experiment, the test system was 20 μL, and the compound needs to be diluted in buffer 1 (20 mM HEPES pH 7.4, 150 mM NaCl, 1 mM dithiothreitol). First, a solution of 20 mM compound was consecutively diluted twice, each in 10 times, totally in 100 times to a concentration of 200 μM. […] […]

- IC50: 42.9 nM
SMILES: Cc1cc(-c2cc(NS(C)(=O)=O)ccc2Oc2ccccc2)n2cc[nH]c(=O)c12
